# Measured values reported in ChEMBL document CHEMBL1134335, “Structure-activity relationships of pyridoxal phosphate derivatives as potent and selective antagonists of P2X1 receptors” (J Med Chem, 2001).
# Sequences of proteins named here, by UniProt entry; tags and fusion partners are left off. A change or cut given only in a name is not applied to a line headed by its entry.
# UniProt Q99571: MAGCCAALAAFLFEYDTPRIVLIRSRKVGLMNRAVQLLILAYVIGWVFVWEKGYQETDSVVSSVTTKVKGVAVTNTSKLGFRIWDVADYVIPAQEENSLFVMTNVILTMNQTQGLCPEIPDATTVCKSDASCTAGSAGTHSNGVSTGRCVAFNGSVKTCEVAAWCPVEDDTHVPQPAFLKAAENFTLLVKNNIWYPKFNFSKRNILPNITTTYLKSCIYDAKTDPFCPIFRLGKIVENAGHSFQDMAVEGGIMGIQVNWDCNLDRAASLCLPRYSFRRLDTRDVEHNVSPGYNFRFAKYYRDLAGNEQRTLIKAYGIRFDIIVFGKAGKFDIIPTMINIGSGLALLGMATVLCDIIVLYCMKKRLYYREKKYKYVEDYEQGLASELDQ
# UniProt Q9JJX6: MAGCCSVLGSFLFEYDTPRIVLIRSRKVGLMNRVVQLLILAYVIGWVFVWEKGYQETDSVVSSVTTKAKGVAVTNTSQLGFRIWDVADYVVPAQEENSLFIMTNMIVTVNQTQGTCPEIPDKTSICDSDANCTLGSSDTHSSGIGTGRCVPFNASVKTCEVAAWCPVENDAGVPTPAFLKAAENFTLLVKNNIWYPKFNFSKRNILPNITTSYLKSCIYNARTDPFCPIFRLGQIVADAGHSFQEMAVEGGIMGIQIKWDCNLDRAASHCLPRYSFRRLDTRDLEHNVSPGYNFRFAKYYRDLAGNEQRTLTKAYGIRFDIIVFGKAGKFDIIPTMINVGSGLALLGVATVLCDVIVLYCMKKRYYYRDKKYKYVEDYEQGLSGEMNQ
# Columns and labels:
# [1] = target: P2X purinoceptor 4 (Homo sapiens, UniProt Q99571)
# [2] = target: P2X purinoceptor 4 (Mus musculus, UniProt Q9JJX6); experiment: Inhibition of inward ion current elicited by ATP at mouse P2X4 receptor (mutant type); type: functional
smiles,measurement,setting,value
Cc1nc(/N=N/c2ccc(S(=O)(=O)O)cc2S(=O)(=O)O)c(COP(=O)(O)O)c(C=O)c1O,IC50,[1],27.5 µM
same,IC50,[2],21 µM
